From ChEMBL document CHEMBL5576121, “Halogen Bonding Hot Spots as a Constraint in Virtual Screening: A Case Study of 5-HT7R” (J Med Chem, 2024)

Sequences of proteins named here, by UniProt entry; tags and fusion partners are left off.
UniProt P34969, whole entry: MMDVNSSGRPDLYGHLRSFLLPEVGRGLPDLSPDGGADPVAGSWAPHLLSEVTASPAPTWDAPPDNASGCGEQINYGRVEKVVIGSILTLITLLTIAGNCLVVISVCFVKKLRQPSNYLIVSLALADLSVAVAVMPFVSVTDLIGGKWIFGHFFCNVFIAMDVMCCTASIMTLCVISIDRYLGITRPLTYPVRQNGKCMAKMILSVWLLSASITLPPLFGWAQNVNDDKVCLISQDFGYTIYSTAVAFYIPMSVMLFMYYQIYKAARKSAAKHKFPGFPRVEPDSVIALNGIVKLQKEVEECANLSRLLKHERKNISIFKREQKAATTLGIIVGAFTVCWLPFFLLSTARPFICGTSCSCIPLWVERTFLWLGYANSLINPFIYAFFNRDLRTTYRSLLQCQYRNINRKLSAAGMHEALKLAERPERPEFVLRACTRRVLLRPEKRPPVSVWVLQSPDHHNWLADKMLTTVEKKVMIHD

Target: 5-hydroxytryptamine receptor 7 (Homo sapiens, UniProt P34969)
Assay: Displacement of [3H]-5-CT from human 5-HT7b receptor expressed in HEK293 cell membranes incubated for 1 hr by Microbeta Topcount instrument based analysis
Details: Membrane

CC1=C(CCN2CCN(c3cccc(Cl)c3)CC2)C(C)(C)CCC1
K: 47 nM
